Reference: paper doi:10.64898/2025.12.24.696448v1

Protein sequences, listed by entry. Tags and fused reporters are not part of them.
UniProt O75874, whole entry: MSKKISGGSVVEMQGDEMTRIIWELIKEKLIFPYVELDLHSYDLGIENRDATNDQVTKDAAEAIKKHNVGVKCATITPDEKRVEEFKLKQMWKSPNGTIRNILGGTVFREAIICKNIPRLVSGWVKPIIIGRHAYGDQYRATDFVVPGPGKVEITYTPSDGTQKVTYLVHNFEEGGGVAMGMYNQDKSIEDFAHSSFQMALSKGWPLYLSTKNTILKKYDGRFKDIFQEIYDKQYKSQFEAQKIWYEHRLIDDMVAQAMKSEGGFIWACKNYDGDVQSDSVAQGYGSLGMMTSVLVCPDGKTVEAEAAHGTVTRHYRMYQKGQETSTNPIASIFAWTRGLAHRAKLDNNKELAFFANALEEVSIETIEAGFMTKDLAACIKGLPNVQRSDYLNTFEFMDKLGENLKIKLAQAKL

Molecular target: IDH1 (Homo sapiens, UniProt O75874)
Assay: SPR
Format: binding
Details: 25 °C, pH 7.4, 2% DMSO; allosteric (cryptic Pocket 5)

Kd: 63.4 µM
Structure (SMILES): O=C1C2CCC(C(O)C2)N1Cc1ccccc1 (stereo not shown)
